Biological target: T1, PvNMT (Plasmodium vivax, UniProt A5K1A2)
T1 construct: 6xHis + PreScission site (MGSSHHHHHHSAALEVLFQ/GP; Gly-Pro stays on the protein after cleavage) (N, cleaved yes); host or cells: E. coli Rosetta 2 (DE3) pRARE
Assay type: biochemical
Settings: Table 1; enzyme selectivity calculated as HsNMT IC50/PvNMT IC50
Source text: NMT activity was indirectly measured through the detection of free CoA by the thiol-reactive probe 7-diethylamino-3-(4′-maleimidylphenyl)-4-methylcoumarin (CPM). […] .
This study aimed to identify NMT is with high selectivity for the P. vivax enzyme compared with human NMTs and high potency against the different stages of the P. vivax parasite. For this purpose, a structure-guided approach was applied using previously reported NMT inhibitors as scaffolds to develop a new generation of PvNMT-targeting compounds. The NMT activity of these inhibitors was first measured using biochemical assays through the detection of free CoA by the thiol-reactive probe 7-diethylamino-3-(4′-maleimidylphenyl)-4-methylcoumarin (CPM). Their antiparasitic activity were further evaluated by measuring blood-stage parasite load and inhibition of P. vivax liver-stage schizont and hypnozoite infection. […] Cytotoxicity was assessed in the human hepatoma HepG2 cell line. […]
To measure the activity of the purified PvNMT an assay was adapted from the literature. […] Fluorescent readings were taken on a Spectra M2 plate reader (Molecular Devices) with excitation at 385 nm and emission at 485 nm. Fluorescent intensity was measured continuously in one-minute intervals for 45 minutes. […] Fluorescence signal was obtained continuously for 45 min. […] IC50 calculations were calculated using Prism (GraphPad Software, Inc).

Amino acid sequences for entries named in this document (tags omitted).
UniProt A5K1A2, entry or part of it: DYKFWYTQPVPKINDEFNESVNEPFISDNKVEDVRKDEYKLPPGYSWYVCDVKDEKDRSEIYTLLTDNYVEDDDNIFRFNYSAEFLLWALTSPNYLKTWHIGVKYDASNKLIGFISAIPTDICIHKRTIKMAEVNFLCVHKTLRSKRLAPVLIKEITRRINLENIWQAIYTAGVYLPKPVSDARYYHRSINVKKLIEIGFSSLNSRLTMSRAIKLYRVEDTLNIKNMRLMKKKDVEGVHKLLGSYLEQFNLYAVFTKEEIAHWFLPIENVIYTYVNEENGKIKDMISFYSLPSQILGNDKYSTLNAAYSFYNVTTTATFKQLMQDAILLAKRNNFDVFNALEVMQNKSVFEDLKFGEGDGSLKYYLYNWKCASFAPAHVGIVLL

Cc1nn(C)c(C)c1CCOc1cccnc1-c1cccc(N2CCNCC2)c1 [Compound 12b, 1-(3-(3-(2-(1,3,5-trimethyl-1H-pyrazol-4-yl)ethoxy)pyridin-2-yl)phenyl)piperazine]
SI**: 259.2

From patent US20260217686A1, “N-Myristoyltransferase Inhibitors And Methods Of Use” (Seattle Children's Hospital (d/b/a Seattle Children's …, priority 2022, published 2026)
